Source: ChEMBL document CHEMBL1125615, “A highly specific aldose reductase inhibitor, ethyl 1-benzyl-3-hydroxy-2(5H)-oxopyrrole-4-carboxylate, and its congeners” (J Med Chem, 1991)

Legend:
[1] = biological target: T1, Aldo-keto reductase family 1 member A1 (Rattus norvegicus, UniProt P51635); assay: Inhibitory activity was measured against renal outer medulla aldehyde reductase
T1 sequence (P51635 whole entry): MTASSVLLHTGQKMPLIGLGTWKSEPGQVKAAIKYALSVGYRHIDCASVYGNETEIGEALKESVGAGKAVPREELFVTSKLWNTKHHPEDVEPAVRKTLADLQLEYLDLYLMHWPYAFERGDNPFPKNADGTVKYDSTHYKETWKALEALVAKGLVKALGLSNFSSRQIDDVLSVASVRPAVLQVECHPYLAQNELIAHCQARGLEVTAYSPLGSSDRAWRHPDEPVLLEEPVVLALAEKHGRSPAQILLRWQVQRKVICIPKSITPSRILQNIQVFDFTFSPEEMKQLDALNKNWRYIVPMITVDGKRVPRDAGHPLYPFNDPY

[2] = biological target: T1, Aldo-keto reductase family 1 member A1; assay: Inhibitory activity was measured against renal cortex aldehyde reductase
[3] = Selectivity ratio measured as the IC50 ratio of aldehyde/aldose reductase values
Outline: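 Ratio of the pig kidney aldehyde reductase IC50 to the rat lens aldose reductase IC50. Both purified enzymes were assayed in 50 mM potassium phosphate pH 7.0 with 0.1 mM NADPH and 5 mM 3-pyridinecarboxaldehyde, started with substrate, reading NADPH loss at 340 nm for 12 min at 25 °C. IC50s came from log-linear regression.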

[4] = biological target: T2, Aldo-keto reductase family 1 member B1 (Rattus norvegicus, UniProt P07943); assay: Percent inhibition of sorbitol accumulation in rat lens was measured; format: tissue-based, Lens of camera-type eye
[5] = biological target: T2, Aldo-keto reductase family 1 member B1; assay: Inhibitory activity measured against rat lens aldose reductase using 3-pyridinecarboxaldehyde as substrate
[6] = biological target: Aldo-keto reductase family 1 member B1 (Rattus norvegicus) (UniProt P07943); assay: Inhibitory activity was measured against renal inner medulla aldose reductase
[7] = biological target: T1, Aldo-keto reductase family 1 member A1; assay: Inhibitory activity was measured against whole kidney aldehyde reductase

Row | SMILES | IC50 [1] | IC50 [2] | Selectivity ratio [3] | IC50 [4] | IC50 [5] | IC50 [6] | IC50 [7]
1 | CCOC(=O)C1=C(O)C(=O)N(Cc2ccccc2)C1 | 210000 nM | 480000 nM | > 4000 | 47 nM | 47 nM | 28 nM | 14000 nM
2 | O=C1NC(=O)[C@@]2(CCOc3ccc(F)cc32)N1 [SORBINIL] |  |  |  |  | 280 nM |  | 
